# The supplement of paper PMC7366291
# ± gives the standard deviation or the standard deviation of the averaged measurements. Shown are results outside the selection of lowest values, which stands elsewhere.
# What was measured:
# Conditions in all cases: 25 µM; exposure: 24-48 hpf
# [1] = tested on: Danio rerio Tg(wt1b:EGFP) embryo, pronephros; test: fraction of imaged embryos annotated as normal kidney; higher = less nephrotoxic
# Summary of the method: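 Zebrafish embryos carrying Tg(wt1b:EGFP) were dechorionated and exposed to 25 μM compound (0.5% DMSO) between 24 and 48 hpf at 28.5°C. Their pronephroi were imaged by widefield fluorescence, and each embryo was classed by hand from maximum projections. The measure is the fraction of embryos per treatment falling in the normal-kidney category.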
# [2] = tested on: Danio rerio Tg(wt1b:EGFP) embryo, pronephros; test: glomerular separation, fold change vs DMSO control; higher = glomeruli further apart (abnormal)
# Summary of the method: (§1)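 Dechorionated Tg(wt1b:EGFP) zebrafish embryos were treated with 25 μM compound in 0.5% DMSO, in HEPES-buffered E3 with 0.003% PTU, from 24 to 48 hpf at 28.5°C. On maximum projections of dorsal pronephros images, 16 hand-placed reference points in Fiji gave distances and angles, and values more than 2 SD from the feature mean were left out. Results are fold changes over the mean of same-day DMSO-treated embryos.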
# [3] = tested on: Danio rerio Tg(wt1b:EGFP) embryo, pronephros; test: glomerular width (mean of left and right), fold change vs DMSO control; higher = wider glomerulus
# Summary of the method: as §1
# [4] = tested on: Danio rerio Tg(wt1b:EGFP) embryo, pronephros; test: pronephric angle neck segment to proximal convoluted tubule (mean of left and right), fold change vs DMSO control; higher = larger pronephric angle
# Summary of the method: as §1
structure (smiles),measurement,setting,value
COc1cc(Br)c(C[N+]2(CCOCCC3CCC4CC3C4(C)C)CCOCC2)cc1OC (centres undefined) [Pinaverium bromide],fraction of imaged embryos annotated as normal kidney,[1],0.75
same,glomerular separation,[2],1.07 ± 0.65
same,glomerular width,[3],1.052 ± 0.009
same,pronephric angle neck segment,[4],1.003 ± 0.0023
